From patent publication US20150203563A1

By UniProt entry, the sequences of proteins in these tests, tags left out. Residues count along the entry.
UniProt P24530, 27-442 C405A limits assumed: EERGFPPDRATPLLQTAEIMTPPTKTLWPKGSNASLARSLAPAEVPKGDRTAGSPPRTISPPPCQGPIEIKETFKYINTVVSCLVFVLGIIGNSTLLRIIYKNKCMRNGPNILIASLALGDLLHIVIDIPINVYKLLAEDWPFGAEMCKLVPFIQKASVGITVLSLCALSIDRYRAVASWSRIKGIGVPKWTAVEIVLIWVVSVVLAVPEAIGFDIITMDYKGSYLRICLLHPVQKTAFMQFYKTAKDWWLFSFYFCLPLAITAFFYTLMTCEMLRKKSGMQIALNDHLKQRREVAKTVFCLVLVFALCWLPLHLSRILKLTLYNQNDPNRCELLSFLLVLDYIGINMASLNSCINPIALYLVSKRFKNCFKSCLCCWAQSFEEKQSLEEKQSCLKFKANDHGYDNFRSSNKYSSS
UniProt P24530, 27-442 limits assumed: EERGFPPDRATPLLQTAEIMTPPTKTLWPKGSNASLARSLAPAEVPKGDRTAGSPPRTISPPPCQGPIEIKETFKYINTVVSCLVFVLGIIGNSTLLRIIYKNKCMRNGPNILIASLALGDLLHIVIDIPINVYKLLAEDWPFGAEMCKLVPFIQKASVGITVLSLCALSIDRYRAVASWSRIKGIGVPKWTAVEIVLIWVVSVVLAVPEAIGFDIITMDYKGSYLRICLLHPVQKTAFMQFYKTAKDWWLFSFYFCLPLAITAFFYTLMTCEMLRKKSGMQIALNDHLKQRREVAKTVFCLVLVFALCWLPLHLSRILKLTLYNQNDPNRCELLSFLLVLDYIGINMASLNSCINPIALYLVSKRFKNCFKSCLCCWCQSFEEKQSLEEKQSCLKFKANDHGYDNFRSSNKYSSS

Columns and labels:
[1] = target: C405A-ETB (mutant ETB with alanine for cysteine at position 405) (human) (UniProt P24530); experiment: cell-based or functional assay
[2] = target: endothelin-B receptor (ETB), human wild type (human) (UniProt P24530); experiment: cell-based or functional assay

decrease of ET-1-stimulated nitrite levels after H2O2 (200 µmol/L, 60 min) in COS-7 cells expressing eNOS and C405A-ETB [1]: 45%
NO2^- (nitrite) generation in HPAECs, ET-1 10 nM, maximum effect at 10 min, against vehicle (µM/µg protein) [2]: 139
decrease of ET-1-stimulated NO2^- formation after H2O2 (200 µmol/L, 60 min) in COS-7 cells expressing eNOS and WT-ETB [2]: 78%
Substance: endothelin-1 (ET-1) (from UniProt P05305 53-73) (ligand)
